PubChem BioAssay AID1621 (Southern Research Specialized Biocontainment Screening …, 2009)
The whole screen tested about 290,000 compounds, of which about 60 (0.02%) were called active. The source calls these results inconclusive, neither active nor inactive. No rule for the calls is given here.

Test: inhibition of WNV-induced cytopathic effect – cell-based, CPE readout (AID 1621)
Settings: West Nile virus-infected cells, at 10 µM, active compounds read high

SMILES | CPE inhibition
CCc1nc2c(n1)c1c(non1O)c1c2no[n+]1[O-] | inconclusive: 5.77%
